We go through one molecule from ChEMBL document CHEMBL2417445, “Access to 7β-analogs of codeine with mixed μ/δ agonist activity via 6,7-α-epoxide opening” (Bioorg Med Chem Lett, 2013).

Sequences of proteins named here, by UniProt entry; tags and fusion partners are left off. A change or cut given only in a name is not applied to a line headed by its entry.
UniProt P41145: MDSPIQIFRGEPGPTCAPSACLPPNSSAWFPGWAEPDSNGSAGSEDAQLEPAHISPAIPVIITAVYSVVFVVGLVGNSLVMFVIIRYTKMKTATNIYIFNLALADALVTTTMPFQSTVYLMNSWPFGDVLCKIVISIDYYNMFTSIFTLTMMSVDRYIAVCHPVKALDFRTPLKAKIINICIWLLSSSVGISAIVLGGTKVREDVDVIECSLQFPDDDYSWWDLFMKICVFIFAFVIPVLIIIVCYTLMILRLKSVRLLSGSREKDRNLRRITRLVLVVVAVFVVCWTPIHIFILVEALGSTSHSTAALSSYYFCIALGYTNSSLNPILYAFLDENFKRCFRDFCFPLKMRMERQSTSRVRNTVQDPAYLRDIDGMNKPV

This assay deals with Kappa-type opioid receptor (Homo sapiens, UniProt P41145). The class given is functional, cell-based.

As a reminder, the EC50 is the concentration at which the effect is half-maximal. Read a low EC50 as an effect from little substance. With `COc1ccc2c3c1O[C@H]1C(=O)CC[C@@]4(O)[C@@H](C2)N(C)CC[C@]314` [OXYCODONE], the response was half-maximal at 16 µM (EC50).
